Data as given in PubChem BioAssay AID434973 (Sanford-Burnham Center for Chemical Genomics, 2010).
The entries are a selection whose mix differs from that of the whole data set. Activity calls are given as the source filed them.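 The calls were made as follows: active = inhibition above about 50% at the single test dose (limit read from the data); inactive = the rest.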

The chains behind the UniProt entries cited, without tags or fusion partners. Where a name states a change or a piece, a line headed by the entry shows the natural chain unless it says otherwise.
UniProt Q9BQF6: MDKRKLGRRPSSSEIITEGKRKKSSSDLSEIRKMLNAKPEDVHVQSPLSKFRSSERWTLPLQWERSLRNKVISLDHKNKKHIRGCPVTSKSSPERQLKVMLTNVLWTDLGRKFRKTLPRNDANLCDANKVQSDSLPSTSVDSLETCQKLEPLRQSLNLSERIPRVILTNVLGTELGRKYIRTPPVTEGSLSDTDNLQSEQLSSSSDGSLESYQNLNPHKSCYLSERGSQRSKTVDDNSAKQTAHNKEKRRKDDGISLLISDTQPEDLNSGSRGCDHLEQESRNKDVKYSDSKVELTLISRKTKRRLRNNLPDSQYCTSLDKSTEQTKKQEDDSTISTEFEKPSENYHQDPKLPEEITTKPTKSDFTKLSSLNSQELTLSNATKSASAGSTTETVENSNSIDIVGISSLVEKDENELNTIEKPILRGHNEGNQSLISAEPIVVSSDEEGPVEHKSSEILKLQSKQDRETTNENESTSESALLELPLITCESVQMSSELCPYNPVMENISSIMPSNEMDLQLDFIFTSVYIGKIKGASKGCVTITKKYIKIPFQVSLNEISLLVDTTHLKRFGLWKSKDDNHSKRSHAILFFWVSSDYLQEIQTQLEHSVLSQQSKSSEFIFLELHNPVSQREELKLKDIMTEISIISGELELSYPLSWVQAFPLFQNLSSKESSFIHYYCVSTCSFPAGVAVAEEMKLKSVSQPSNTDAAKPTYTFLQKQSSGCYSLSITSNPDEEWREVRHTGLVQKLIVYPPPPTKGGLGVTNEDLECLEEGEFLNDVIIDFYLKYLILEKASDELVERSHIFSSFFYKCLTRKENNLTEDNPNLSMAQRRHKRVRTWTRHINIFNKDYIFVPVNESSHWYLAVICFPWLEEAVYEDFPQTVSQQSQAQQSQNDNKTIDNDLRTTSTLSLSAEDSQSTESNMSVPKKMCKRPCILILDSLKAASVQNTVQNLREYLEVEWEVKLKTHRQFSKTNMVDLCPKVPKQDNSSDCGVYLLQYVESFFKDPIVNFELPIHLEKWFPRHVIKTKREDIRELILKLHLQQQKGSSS

Each compound was assayed against Sentrin-specific protease 7 (Homo sapiens) (UniProt Q9BQF6) (assay: SENP7 protease inhibitors, primary screen, biochemical, luminescence, uHTS (AID 434973;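 also: plate controls were DMSO with enzyme for no effect and no enzyme buffer wells for full effect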)). Conditions: recombinant SENP7, Z-RLRGG-aminoluciferin luminescence, 40 min; at 5 µM; hits give high values.

Compound | inhibition
COc1cc(C2NCCC3(OCCO3)C2(C)C)cc(OC)c1OC (centres undefined) | inactive: 4.44%
CCOP(=O)(Nc1cccc2ccccc12)OCC | inactive: -2.44%
Cc1ccc(NCCc2c([N+](=O)[O-])cc([N+](=O)[O-])cc2[N+](=O)[O-])cc1 | inactive: 12.2%
CCCOP(=S)(Nc1nc(N)cc(=O)[nH]1)OCCC | inactive: -5.25%
O=[As](O)(c1cccc(O)c1)c1cccc(O)c1 | inactive: 8.03%
Cc1cccc(OCC(=O)OC2CN3CCC2CC3)c1 (centres undefined) | inactive: 3.02%
O=C(OC1CN2CCC1CC2)c1ccc(Cl)cc1 (centres undefined) | inactive: -0.508%
COc1cc(C(=O)NCC2(N3CCOCC3)CCCCC2)cc(Cl)c1OC(C)C | inactive: 1.43%
O=[As](O)(O)c1cccnc1 | inactive: 5.13%
CS(=O)(=O)c1ccc(Cl)c(NC(=O)COC(=O)C(O)(c2ccccc2)c2ccccc2)c1 | inactive: -14.7%
N#CCCN(C(=O)COC(=O)C(O)(c1ccccc1)c1ccccc1)c1ccc(F)cc1 | inactive: -6.78%
CCOP1(=S)c2c(C)nn(CCC#N)c2N=C(c2ccc(F)cc2)N1C (centres undefined) | inactive: -5.54%
CN(C(=O)Cc1ccccc1)[C@@H]1CC[C@]2(CCCO2)C[C@H]1N1CCCC1 | inactive: -5.22%
CN(C)C(=O)c1cc([N+](=O)[O-])cc2c1-c1c(cc([N+](=O)[O-])cc1[N+](=O)[O-])C2=O | inactive: -5.92%
O=[N+]([O-])c1ccc2c(c1)nnn2O | inactive: -4.48%
CN(C(=O)Cc1ccc(Cl)c(Cl)c1)[C@H]1CC[C@@]2(CCCO2)C[C@@H]1N1CCCC1 | inactive: -5.22%
NC(=O)Nc1ccc([As](=O)(O)O)cc1 | inactive: 14.1%
O=C(O)COc1ccc([As](=O)(O)O)cc1[N+](=O)[O-] | inactive: 8.74%
Nc1ccccc1[As](=O)(O)c1ccccc1 | inactive: -3.54%
CCOP1(=S)c2c(C)nn(CCC#N)c2N=C(c2ccccc2F)N1C (centres undefined) | inactive: 5.81%
O=P(Nc1nccs1)(c1ccccc1)c1nc2ccccc2s1 (centres undefined) | inactive: -7.81%
O=P(Nc1nccs1)(Oc1ccccc1)Oc1ccccc1 | inactive: -8.22%

Compound | inhibition
CS(=O)(=O)c1cc([N+](=O)[O-])c2no[n+]([O-])c2c1 | inactive: 0.644%
Nc1cccc([As](=O)(O)c2ccccc2)c1 | inactive: -9.23%
NS(=O)(=O)c1cccc(NC(=O)COC(=O)C(O)(c2ccccc2)c2ccccc2)c1 | inactive: 3.95%
O=P1(Nc2ccc(Br)cn2)COc2ccccc2OC1 | inactive: -3.4%
O=[As](O)(c1cccs1)c1cccs1 | inactive: -0.443%
Cc1ccc(OCC(=O)OC2CN3CCC2CC3)cc1 (centres undefined) | inactive: 4.95%
O=P1(Nc2ncccn2)COc2ccccc2OC1 | inactive: -1.36%
CN(C)C1(CNC(=O)c2ccc(S(C)(=O)=O)cc2)CCCCC1 | inactive: -8.64%
O=C(/C=C/c1ccccc1)OC1CN2CCC1CC2 (centres undefined) | inactive: -17%
Cc1nn(-c2ccccc2)c2c1P(=O)(N1CCOCC1)N(C)C(c1ccccc1)=N2 (centres undefined) | inactive: -4.41%
Cc1ccc(C(=O)OC2CN3CCC2CC3)cc1 (centres undefined) | inactive: 0.789%
CC1CCC(C(C)C)C(OP(=O)(Nc2ccccn2)c2ccccc2)C1 (centres undefined) | inactive: 2.05%
CN(C(=O)Cc1ccc(Cl)c(Cl)c1)[C@@H]1CCCC[C@H]1N1CCCC1 | inactive: -3.19%
CC(C)/C=N\N=C(\N)N[N+](=O)[O-] | inactive: -0.691%
O=[As](O)(c1ccccc1Br)c1ccccc1Br | inactive: 9.2%
CC1(CBr)Cn2c(nc3ccccc3c2=O)S1 (centres undefined) | inactive: -4.14%
COc1ccccc1CNC(=O)COC(=O)C(O)(c1ccccc1)c1ccccc1 | inactive: 2.02%
Clc1n[nH]nc1-c1nn[nH][15n]1 | inactive: -1.85%
CC(C)(C)C(=O)NC(Sc1ncccn1)C(Cl)(Cl)Cl (centres undefined) | inactive: 4.86%
CCC1=CC2Cc3nc4ccc(Cl)cc4c(N)c3C(C1)C2 (centres undefined) | inactive: 1.82%
O=P1(Nc2ccccn2)COc2ccccc2OC1 | inactive: -6.01%
CCOP(=O)(NC(=NC(C)c1ccccc1)NC(C)c1ccccc1)OCC (centres undefined) | inactive: -3.31%

Compound | inhibition
CN(CCCl)Cc1cc(Cl)c(NC2=NCCN2)c(Cl)c1 | inactive: 0.11%
CCOP(=O)(Nc1ccc(C)cn1)OCC | inactive: 0.541%
CCC(C)N(CC(C)C)C(=S)SC(NC(C)=O)C(Cl)(Cl)Cl (centres undefined) | inactive: -3.28%
O=C(OC1CN2CCC1CC2)c1cccc([N+](=O)[O-])c1 (centres undefined) | inactive: -6.65%
CCOC(=O)c1ccc(NC(=O)C(C)(CCl)SC)cc1 (centres undefined) | inactive: -5.33%
O=C(COc1ccccc1)OC1CN2CCC1CC2 (centres undefined) | inactive: 4.8%
O=C(Nc1ccncc1[N+](=O)[O-])c1ccc([N+](=O)[O-])cc1[N+](=O)[O-] | inactive: 4.78%
COP1(=S)c2c(C)nn(CCC#N)c2N=C(c2ccc(F)cc2)N1C (centres undefined) | inactive: 10.7%
Cc1cc(SC(NC=O)C(Cl)(Cl)Cl)ncn1 (centres undefined) | inactive: -10.9%
O=P(Nc1ccccn1)(c1cccc2ccccc12)c1cccc2ccccc12 | inactive: 0.954%
CCOC(=O)Nc1cccc([As](=O)(O)O)c1 | inactive: -0.798%
CCCCOc1ccc(C(=O)NCC2(N3CCCCC3)CCCCC2)cc1OC | inactive: 8.35%
Cc1cc(SC(NC(=O)c2ccccc2)C(Cl)(Cl)Cl)nc(C(C)C)n1 (centres undefined) | inactive: -3.17%
CCOC(=O)Nc1ccc([As](=O)(O)O)c(O)c1 | inactive: 3.36%
O=C(OC1CN2CCC1CC2)c1cccc2[nH]cnc12 (centres undefined) | inactive: 3.25%
CCN(CC)C(=S)SC(NC=O)C(Cl)(Cl)Cl (centres undefined) | inactive: 11.3%
CC(C)NC(=O)NP(=O)(Oc1ccccc1)Oc1ccccc1 | inactive: 2.61%
O=[N+]([O-])c1cc([N+](=O)[O-])c(-c2ccn[nH]2)s1 | inactive: -5.5%
ClCCSc1nnc(-c2cccnc2)o1 | inactive: 3.64%
CC(C)c1ccc(OP(=O)(Nc2ccccn2)Oc2ccccc2F)cc1 (centres undefined) | inactive: 1.19%
